Protein sequences, listed by entry. Tags and fused reporters are not part of them. Lines headed by an entry give the natural chain unless they say otherwise; changes in a name come on top.
UniProt P41145: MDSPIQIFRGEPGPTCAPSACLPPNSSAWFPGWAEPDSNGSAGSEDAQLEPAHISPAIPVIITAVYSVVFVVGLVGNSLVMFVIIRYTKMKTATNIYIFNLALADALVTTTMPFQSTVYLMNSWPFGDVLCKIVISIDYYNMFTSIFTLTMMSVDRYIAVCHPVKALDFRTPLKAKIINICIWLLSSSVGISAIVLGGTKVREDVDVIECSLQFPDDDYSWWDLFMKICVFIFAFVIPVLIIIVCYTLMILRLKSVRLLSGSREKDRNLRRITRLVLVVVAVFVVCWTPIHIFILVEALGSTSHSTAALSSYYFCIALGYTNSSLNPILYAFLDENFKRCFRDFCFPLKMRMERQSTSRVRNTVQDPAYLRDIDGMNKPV

In paper PMC3401595 (Bioorganic & medicinal chemistry, 2012):

biological target: κ opioid receptor (Homo sapiens, UniProt P41145); assay: biochemical

| SMILES | Ki |
| --- | --- |
| CCCCN(CCCC)CCOC/C=C/c1ccccc1 [Compound 17, 2-(Cinnamyloxy)-N,N-dibutylethanamine] | > 10 µM |
| CCCCN(CCCC)CCOCCCc1ccccc1 [Compound 18, N,N-dibutyl-2-(3-phenylpropoxy)ethanamine] | > 10 µM |
| CN(CCOC/C=C/c1ccccc1)Cc1ccccc1 [Compound 33, N-benzyl-2-(cinnamyloxy)-N-methylethanamine] | > 10 µM |
| CN(CCOCCCc1ccccc1)Cc1ccccc1 [Compound 34, N-benzyl-N-methyl-2-(3-phenylpropoxy)ethanamine] | > 10 µM |
| CN(CCOC/C=C/c1ccccc1)CCc1ccccc1 [Compound 35, 2-(Cinnamyloxy)-N-methyl-N-phenethylethanamine] | > 10 µM |
| CN(CCOCCCc1ccccc1)CCc1ccccc1 [Compound 36, N-methyl-N-phenethyl-2-(3-phenylpropoxy)ethanamine] | > 10 µM |
| CN(CCCc1ccccc1)CCOC/C=C/c1ccccc1 [Compound 37, 2-(Cinnamyloxy)-N-methyl-N-phenylpropylethanamine] | > 10 µM |
| CN(CCCc1ccccc1)CCOCCCc1ccccc1 [Compound 38, N-methyl-N-phenylpropyl-2-(3-phenylpropoxy)ethanamine] | > 10 µM |
